# Reference: ChEMBL document CHEMBL1153911 (Bioorg Med Chem Lett, 2009)
# Assays:
# Homo sapiens [1] = species: Homo sapiens; assay: Selectivity ratio of Ki for mu opioid receptor to Ki for kappa opioid receptor
# Homo sapiens [2] = species: Homo sapiens; assay: Selectivity ratio of Ki for delta opioid receptor to Ki for kappa opioid receptor
compound,measurement,setting,value
N=C(N)Nc1ccc2[nH]c3c(c2c1)C[C@@]1(O)[C@H]2Cc4ccc(O)c5c4[C@@]1(CCN2CC1CC1)[C@H]3O5,Ratio Ki,Homo sapiens [1],120
same,Ratio Ki,Homo sapiens [2],250
